US9533975B2, “Dual-action, unnatural proline-rich peptides as antibiotic agents and methods thereof” (Purdue Research Foundation, priority 2014, dated 2017)
Marks after values point to notes of the source that are not given here.

Legend:
[1] = test system: human red blood cells (hRBCs); settings: 1 h of incubation
E. coli = assay: Antibacterial activity (MIC) against E. coli; type: cell-based; settings: minimum inhibitory concentration
Excerpt: (§1) The antibacterial activity of the five peptides was explored with E. coli and S. aureus. […] Electrostatic interactions between cationic AMPs and the negatively charged bacterial membrane are believed to be the first step in antibacterial action, thereby explaining the improved antibacterial activity when going from P11 LRR (+4 charge) to P14LRR (+8 charge). […] Replacing the fluorescein moiety in P14LRR with an acetyl group led to no discernible change in activity.

S. aureus = assay: Antibacterial activity (MIC) against S. aureus; type: cell-based; settings: minimum inhibitory concentration
Excerpt: as §1

## CC[C@H](C)[C@H](NC(=O)CN)C(=O)NCC(=O)N[C@@H](C)C(=O)N[C@H](C(=O)N[C@@H](CC(C)C)C(=O)N[C@@H](CCCCN)C(=O)N[C@H](C(=O)N[C@@H](CC(C)C)C(=O)N[C@H](C(=O)N[C@H](C(=O)NCC(=O)N[C@@H](CC(C)C)C(=O)N1CCC[C@H]1C(=O)N[C@@H](C)C(=O)N[C@@H](CC(C)C)C(=O)N[C@H](C(=O)N[C@@H](CO)C(=O)N[C@@H](Cc1c[nH]c2ccccc12)C(=O)N[C@H](C(=O)N[C@@H](CCCCN)C(=O)N[C@@H](CCCNC(=N)N)C(=O)N[C@@H](CCCCN)C(=O)N[C@@H](CCCNC(=N)N)C(=O)N[C@@H](CCC(N)=O)C(=O)N[C@@H](CCC(N)=O)C(N)=O)[C@@H](C)CC)[C@@H](C)CC)[C@@H](C)O)[C@@H](C)O)C(C)C)C(C)C [Melittin]
[1]
  Hemolysis: 5^[b] μM
E. coli
  E. coil MIC: 4.6 µM
S. aureus
  S. aureus MIC: 2.1 µM
